Molecules are shown by their SMILES.

Common to all, as to type: biochemical
Details in all cases: in vitro

One assay concerns uptake of the choline. Put plainly: inhibition of the uptake of choline by synaptosomes of the rat's brain, striatum.
Assay [1] concerns uptake of the dopamine (DA). Put plainly: inhibition of the uptake of dopamine (DA) by synaptosomes of the rat's brain, striatum.
Assay [2] relates to uptake of the noradrenaline (NA). Put plainly: inhibition of the uptake of noradrenaline (NA) by synaptosomes of the rat's brain, hypothalamus. The text has this: (§1) The activity of the products according to the present invention as antidepressants has now been shown, in vitro, by means of the test for inhibition of the uptake of the cerebral amines by the synaptosomes of the rat's brain, according to the method of […] et al., (Biochem. Pharmacol. 22, 73, 1973) which is relied upon herein for this purpose and the disclosure incorporated by reference.
(§2) The results are expressed by an inhibiting concentration IC50, which represents the dose of product in micromoles per liter reducing by 50% the uptake of the noradrenaline (NA), the dopamine (DA), the serotonine (5-HT), or the choline in the specific regions of the brain (hypothalamus,striatum, medulla+pons) where the corresponding neurons predominate.

The subject of assay [3] is uptake of the serotonine (5-HT). Put plainly: inhibition of the uptake of serotonine (5-HT) by synaptosomes of the rat's brain, medulla + pons.
From the text: as §1, §2

`CC(N)Cc1ccccc1` (stereo not shown) [Amphetamine, reference compound]: the IC50 turned out to be 1000 µM with uptake of the choline, 1.7 µM in assay [1], 0.012 µM in assay [2] and 5 µM in assay [3].
